Laboratory results taken from article PMC11156913, “New sulfonamide-based glycosides incorporated 1,2,3-triazole as cytotoxic agents through VEGFR-2 and carbonic anhydrase inhibitory activity” (Scientific Reports, 2024).

Test system: colorectal HCT-116 cancer cell line
Assay: In vitro cytotoxic activity (MTT assay), HCT-116
Assay type: cell-based
Conditions: Homo sapiens, HCT-116 cells, read-out: IC50 (mean ± SD) HCT-116
Source text: The supplemental file contained extra details.

## CCN(CC)CCNC(=O)c1c(C)[nH]c(/C=C2\C(=O)Nc3ccc(F)cc32)c1C [Sunitinib, reference compound]
  IC50: 9.67 ± 0.22 µM
